From PubChem BioAssay AID574 (The Scripps Research Institute Molecular Screening Center, 2007)
Only a part is listed here, and it is no random draw. Some of these compounds have results that are not shown, active ones among them. Active and inactive are the calls of the source.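 How the source made its calls: active means activation above a set limit, the screen-wide mean activation plus 3 SD (cut at about 8.5% in these data); inactive means the rest.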

Sequences of proteins named here, by UniProt entry; tags and fusion partners are left off.
UniProt P28566, whole entry: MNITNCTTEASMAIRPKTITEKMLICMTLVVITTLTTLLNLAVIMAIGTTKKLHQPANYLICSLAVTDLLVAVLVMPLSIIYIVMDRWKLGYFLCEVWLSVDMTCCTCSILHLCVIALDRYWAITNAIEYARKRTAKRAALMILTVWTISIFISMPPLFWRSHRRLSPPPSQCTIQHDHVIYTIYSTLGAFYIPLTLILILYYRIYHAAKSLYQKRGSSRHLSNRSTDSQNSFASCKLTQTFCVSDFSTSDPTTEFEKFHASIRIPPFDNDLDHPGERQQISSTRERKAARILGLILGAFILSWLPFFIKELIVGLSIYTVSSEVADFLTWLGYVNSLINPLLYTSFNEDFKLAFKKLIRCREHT

Biological target: 5-hydroxytryptamine receptor 1E (Homo sapiens) (UniProt P28566)
Assay: activation of human serotonin 5HT1E receptor – cell-based, HTS, primary screen (AID 574);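 further: 100% = positive control agonist at 1 µM giving full maximal response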
Details: CHO 5-HT1E Ga15 NFAT-bla reporter, FRET; at 6 µM; hits give high values; 0% DMSO wells, 100% control agonist wells

Compound | activation
O=C(OC1CN2CCC1CC2)C(CO)(c1ccccc1)c1ccccc1 (configuration not stated) | inactive: -0.5%
CN(C)c1cccc(C(=O)NCC2(N(C)C)CCCCC2)c1 | inactive: 0.7%
